{
  "source": "PubChem BioAssay AID817",
  "about": "(Emory University Molecular Libraries Screening Center, 2007)",
  "note": "The entries are a selection whose mix differs from that of the whole data set. Activity calls are given as the source filed them.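 Rule for the calls: active = z-score above 3 at both the 24 hr and the 30 hr optical density reads; inactive = the rest, inconclusive results apart.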",
  "data": [
    {"test": "growth rescue of sdo1-depleted yeast, primary screen, S. cerevisiae, bone marrow failure model (AID 817);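 note: z-score against mean and SD of all compound wells on the same plate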", "conditions": "S. cerevisiae sdo1-depleted JHY4D growth rescue, OD600 30 h; at 10 µM; hits give high values; pdr5 snq2 efflux-pump mutant strain", "values": [
      {"smiles": "Fc1ccccc1NC1CCN(Cc2ccccc2)CC1", "z-score": "inactive: -0.24"},
      {"smiles": "CCN1CCC(Nc2cccc(F)c2)CC1", "z-score": "inactive: 1.68"},
      {"smiles": "CCOc1ncccc1C(=O)NCC1(N2CCOCC2)CCCCC1", "z-score": "inactive: 0.5"},
      {"smiles": "CCC(CO)(C(=O)OC1CN2CCC1CC2)c1ccccc1", "note": "(stereo not drawn)", "z-score": "inactive: 0.56"},
      {"smiles": "N/C(=N\\O)c1c(N)no[n+]1[O-]", "z-score": "inactive: 0.59"},
      {"smiles": "O=C(OC1CN2CCC1CC2)C1c2ccccc2C=Cc2ccccc21", "note": "(stereo not drawn)", "z-score": "inactive: -0.68"},
      {"smiles": "c1ccc(CN2CCC(Nc3ccccc3)CC2)cc1", "z-score": "inactive: -0.52"},
      {"smiles": "N#CC1(Nc2ccccc2)CCN(CCc2ccccc2)CC1", "z-score": "inactive: 0.52"},
      {"smiles": "CN1CCN(CCOC(=O)C(O)(c2ccccc2)c2ccccc2)CC1", "z-score": "inactive: -0.26"},
      {"smiles": "O=C(NCC1(N2CCOCC2)CCCCC1)c1cc(=O)[nH]c2ccccc12", "z-score": "inactive: 0.47"},
      {"smiles": "O=C(NCC1(N2CCOCC2)CCCCC1)c1cc2ccccc2o1", "z-score": "inactive: -0.02"},
      {"smiles": "O=C(OC1CN2CCC1CC2)C1c2ccccc2Oc2ccccc21", "note": "(stereo not drawn)", "z-score": "inactive: 0.17"},
      {"smiles": "COc1ccc(NC2CCN(CCc3ccccc3)CC2)c(OC)c1", "z-score": "inactive: 0.38"}
    ]}
  ]
}
